# Patent publication US8617516B2, “Universal anchor peptide for nanoparticles” (Washington University, priority 2008, dated 2013)
# System: 2F2B mouse endothelial cells
# Assay: XTT cell viability assay (cytotoxicity of peptides)
# Assay type: cell-based
# Conditions: 2F2B cells, 3 hours of treatment at 37° C.
# Procedure: For each peptide, cytotoxicity was assessed in 2F2B mouse endothelial cells by the XTT cell viability assay (Biotium, Hayward, Calif.). Cells were seeded in 96-well plates at 10,000 cells/well 24 hours before treatment with melittin and mutated melittins at selected concentrations. After 3 hours of treatment at 37° C., 25 μl of activated XTT solution was added to each well and incubated at 37° C. for 5 hours. After 5 hours of incubation, plates were gently shaken to achieve even dye distribution. The absorbances of the samples were measured by a microplate reader (Biorad, Model 550, Hercules, Calif.) at a wavelength of 450 nm. Background was subtracted and the results were normalized to untreated control cells.
smiles,measurement,value
"CC[C@H](C)[C@H](NC(=O)CN)C(=O)NCC(=O)N[C@@H](C)C(=O)N[C@H](C(=O)N[C@@H](CC(C)C)C(=O)N[C@@H](CCCCN)C(=O)N[C@H](C(=O)N[C@@H](CC(C)C)C(=O)N[C@H](C(=O)N[C@H](C(=O)NCC(=O)N[C@@H](CC(C)C)C(=O)N1CCC[C@H]1C(=O)N[C@@H](C)C(=O)N[C@@H](CC(C)C)C(=O)N[C@H](C(=O)N[C@@H](CO)C(=O)N[C@@H](Cc1c[nH]c2ccccc12)C(=O)N[C@H](C(=O)N[C@@H](CCCCN)C(=O)N[C@@H](CCCNC(=N)N)C(=O)N[C@@H](CCCCN)C(=O)N[C@@H](CCCNC(=N)N)C(=O)N[C@@H](CCC(N)=O)C(=O)N[C@@H](CCC(N)=O)C(N)=O)[C@@H](C)CC)[C@@H](C)CC)[C@@H](C)O)[C@@H](C)O)C(C)C)C(C)C [MMLT, reference compound]",IC50,2360 ± 230 nM
